{"source": "ChEMBL document CHEMBL1125656", "about": "“Novel indole-2-carboxylates as ligands for the strychnine-insensitive N-methyl-D-aspartate-linked glycine receptor” (J Med Chem, 1991)", "target": "Glutamate NMDA receptor", "experiment": "Inhibition of strychnine-insensitive [3H]glycine binding to the N-methyl-D-aspartate glutamate receptor of synaptic plasma membranes(SPM) prepared from rat forebrain", "type": "cell-free", "outline": "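Rat forebrain synaptic plasma membranes (male Sprague-Dawley, 30–45 days old), Triton X-100-washed; 0.2–0.4 mg incubated with 10 nM [3H]glycine and a range of compound concentrations in triplicate, in 50 mM Tris/acetate pH 7.4, for 10 min at 2 °C. Bound ligand separated by centrifugation (12000g, 15 min, 4 °C) or GF/B filtration, then scintillation counted. Nonspecific binding set with 100 μM glycine. Ki derived by logit-log analysis.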"}
{"smiles": "COC(=O)Cc1c(C(=O)O)[nH]c2cc(Cl)ccc12", "values": [{"measurement": "Ki", "result": 1560, "unit": "nM"}]}
